Test results reported in patent EP3331365B1, “AGENT FOR FIGHTING FISH PARASITES” (Pharmaq AS, priority 2015, dated 2017).

System: Atlantic salmon (Salmo salar)
Conditions: 2ppm for 60 minutes by bath; 12°C seawater

## CC(C)c1cc(Oc2ccccc2)cc(C(C)C)c1NC(=S)NC(C)(C)C [Diafenthiuron, 1-tert-butyl-3-(2,6-diisopropyl-4-phenoxyphenyl)thiourea]
  toxic effect in the treated fish: no toxic effect
